In patent publication US20260215418A1, “HYDROCARBON ALCOHOLS AND THEIR DERIVATIVES AS SYNERGISTS IN PESTICIDE ACTIVITY” (priority 2022, published 2026):

Tested on: Musca domestica L.
Assay: Contact test on non-porous tile, Musca domestica
Type: in vivo
Details: 48 h; for Mortality %/time (h): single substance alone; for Mortality %: 25° C, insects on treated tile
Protocol: 1 ml of Composition 1 was applied to the tile. […] 1 ml of Composition 8a was distributed on the tile. […] 1 ml of Composition 8a was distributed on a tile. […] At the end of the 30 minutes, the flies were transferred to an untreated area.
1 ml of Composition 3 was applied to the tile. […] 1 ml of Composition 8c was distributed on the tile. […] 1 ml of Composition 8c was distributed on a tile. […] At the end of the 30 minutes, the flies were transferred to an untreated area.
1 ml of Composition 9a was distributed on the tile. […] 1 ml of Composition 9a was distributed on a tile. […] At the end of the 30 minutes, the flies were transferred to an untreated area. […] 1 ml of Composition 10a was distributed on the tile. […] 1 ml of Composition 10a was distributed on a tile. […] At the end of the 30 minutes, the flies were transferred to an untreated area. […] 1 ml of Composition 8c was distributed on the tile. […] 1 ml of Composition 8c was distributed on a tile. […] At the end of the 30 minutes, the flies were transferred to an untreated area.
1 ml of Composition 5a, was distributed on the tile. […] 1 ml of Composition 6a was distributed on the tile. […] 1 ml of Composition 7a was distributed on the tile.
1 ml of Composition 3 was distributed on the tile. […] 1 ml of Composition 9a was distributed on the tile. […] 1 ml of Composition 11a was distributed on a tile. […] 1 ml of Composition 12a was distributed on a tile.
1 ml of Composition 3 was distributed on the tile. […] 1 ml of Composition 17a was distributed on a tile. […] 1 ml of Composition 18a was distributed on a tile. […] Each experiment (A-C) was conducted in duplicate.
1 ml of Composition 23a was distributed on the tile. […] 1 ml of Composition 20a was distributed on a tile. […] Each experiment (A-B) was conducted in duplicate.
1 ml of Composition 3 was distributed on the tile. […] 1 ml of Composition 25a was distributed on a tile. […] Each experiment (A-B) was conducted in duplicate.
1 ml of Composition 23a was distributed on the tile. […] 1 ml of Composition 27a was distributed on a tile. […] Each experiment (A-B) was conducted in duplicate.
1 ml of Composition 43 was distributed on the tile. […] 1 ml of Composition 26a was distributed on a tile. […] 1 ml of Composition 26b was distributed on a tile. […] 1 ml of Composition 26c was distributed on a tile.
1 ml of Composition 43 was distributed on the tile. […] 1 ml of Composition 22a was distributed on a tile. […] 1 ml of Composition 22b was distributed on a tile. […] 1 ml of Composition 22c was distributed on a tile.
1 ml of Composition 23a was distributed on the tile. […] 1 ml of Composition 44a was distributed on a tile.
1 ml of Composition 43 was distributed on the tile. […] 1 ml of Composition 33 was distributed on a tile. […] 1 ml of Composition 33 was distributed on a tile. […] At the end of the 30 minutes, the flies were transferred to an untreated area.
1 ml of Composition 1 was distributed on the tile. […] 1 ml of Composition 34 was distributed on a tile. […] 1 ml of Composition 34 was distributed on a tile. […] At the end of the 30 minutes, the flies were transferred to an untreated area.
1 ml of Composition 3 was distributed on the tile. […] 1 ml of Composition 31a was distributed on a tile. […] 1 ml of Composition 31b was distributed on a tile. […] 1 ml of Composition 31b was distributed on a tile. […] At the end of the 30 minutes, the flies were transferred to an untreated area. […] 1 ml of Composition 38a was distributed on a tile. […] 1 ml of Composition 38a was distributed on a tile. […]

**Q.** How did the “Mortality %/time (h)” value (0.24 mg/ml) turn out when Spinosad was run?
**A.** 33/48 ^ %

**Q.** With Oleic alcohol [Oleic alcohol 95%] as the substance, how does the “Mortality %/time (h)” value (0.68 mg/ml) read?
**A.** 6/48 ^ %

**Q.** With “Spinosad [Composition 43, reference compound]” as the substance, how does the Mortality % (Example 19) read?
**A.** 33%

**Q.** What about the Mortality % (Example 23) of the same substance?
**A.** 33%

**Q.** What about the Mortality % (Example 27) of the same substance?
**A.** 33%
